## Yeast mating assay B: variants of the scFv Ab-14

Binding partner: SARS-CoV-2 spike HR2 peptide, sequence PDVDLGDISGINAS.

Each scFv is VH, a 15-residue (Gly4Ser)3 linker, VL, as in the parent Ab-14, and differs from it in the CDRs of the light chain only.
VH: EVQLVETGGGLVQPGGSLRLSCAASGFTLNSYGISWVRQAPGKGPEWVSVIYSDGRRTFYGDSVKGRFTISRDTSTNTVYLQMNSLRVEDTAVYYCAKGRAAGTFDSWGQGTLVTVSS
VL: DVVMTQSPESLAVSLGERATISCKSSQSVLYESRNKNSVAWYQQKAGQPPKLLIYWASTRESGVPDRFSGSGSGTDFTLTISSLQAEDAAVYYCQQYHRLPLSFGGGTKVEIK

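Phage display of a naive human antibody library on the peptide gave the parent. Designed CDR sequences, proposed from the first random library and measured here. Group labels follow the data file (Ctrl: baseline library sampled from a position-specific scoring matrix, with some repeated check sequences; En: ensemble of fine-tuned language models; GP: Gaussian process model; HC: hill climbing; Gen: genetic algorithm; Gibbs: Gibbs sampling; a sequence that several methods proposed may carry one label only). The assay is AlphaSeq: two haploid yeast populations carry antibody and antigen on their surface. Binding brings cells together so that they mate, and sequencing counts the barcode pairs among the diploids. The ratio of observed to expected reads was calibrated, replicate by replicate, on BCL2-family standards whose Kd was known from biolayer interferometry. The assay was run in six technical replicates.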

Each variant is given by its three light chain CDRs, as the data file delimits them; those of the parent are KSSQSVLYESRNKNSVA, WASTRES, QQYHRLPLS. The Kd shown is the geometric mean over detected replicates; a lower Kd is a better binder. Where no diploid with the target was found in any replicate, the entry reads "no signal": below detection, most likely a poor binder, though not proof of it. Values of this round are not directly comparable with the first-round values of the same sequences.

CDR-L1	CDR-L2	CDR-L3	group	Kd	replicates with signal
MISQLMNMGQFAINSVA	QANIRNS	QQYDRLPLM	En_Gen	no signal	0/6
KMSQSVWYEQRNFNSVA	NGSTRES	QQYHRLPLS	GP_Gibbs	3.2 nM	6/6
KVSQSVLYESGTKNSVA	NASRRES	QQYHRLPLS	GP_HC	2.9 nM	6/6
TISQMTSWMSNKKANVA	EVSTREP	QQYDRLPLS	En_Gen	3.1 nM	6/6
KLRQMTLTEGYFKNSVA	QASTREN	QSYHRLPLS	En_HC	4.2 nM	6/6
NLMSGGSELSVWSRNIA	DANIRES	QQYFRLPLL	En_Gibbs	2.1 nM	6/6
KLYFSEEYESRNKNSVA	SAHQRES	QQYHRLPLS	GP_Gibbs	1.1 nM	6/6
KISQMSTIESITHNSVA	QTSTRES	QQYDRLPLS	En_HC	4.9 nM	6/6
KQSQSVLCESRNKNSVA	DASTRES	QQYHRLPLS	GP_HC	1.8 nM	6/6
KLSQSYLYESGNKNSVA	NASTRMS	QQYHRLPLS	GP_Gen	380 pM	6/6
HMSMLTMMGMKQRNSVA	QMTMREN	QQYDRLPLT	En_Gen	4.6 nM	6/6
KSSQSVLAESRNKNSVA	WASTRES	QQHHRLPLS	Ctrl	200 nM	3/6
TLYGLSNSMSKNKNSVA	EMTTREK	QQYDRLPLM	En_Gen	8.6 nM	6/6
KLSQSYGYESRNKNSVA	NASTRES	QQYHRLPLS	GP_Gen	570 pM	6/6
AISQMLEPAAQNSSSVA	EADRVTE	QQYHKLPLT	En_Gibbs	53 nM	6/6
IISQSVMFEQTLINSVA	NAQTRET	QQYHRLPLS	En_HC	8.4 nM	6/6
KLSQSVLYESGNKNSVA	DASTRES	QQYHRLPLS	GP_Gen	1.1 nM	6/6
KSSQSVLYESRNKNSVA	EASTRES	QQYTRLPLS	Ctrl	3.4 nM	4/6
KLSMITGHMSMSRNNVA	EMVTREN	QQYNRLPLS	En_Gen	2.2 nM	6/6
KLSQWVLYESRTKNSVA	NASTRES	QQYHRLPLS	GP_HC	940 pM	6/6
TIGVTLMQGIRNRSNVA	EVSERLN	QQYDRLPLT	En_Gen	91 nM	6/6
KSSQGVVDESFNKNSVA	WASTRRS	QQYHRLPLS	Ctrl	260 nM	2/6
KLSQSQEYESRNKNSVA	NASTRLT	QQYHRLPLE	GP_Gibbs	590 pM	6/6
KLDMNELGQSQNSSHVA	GSAQKCS	QQYSRLPLS	En_Gibbs	53 nM	6/6
KSSQSVLYESRNKNSVA	WASTRES	QQYCRLPLS	Ctrl	no signal	0/6

The remaining entries, values ahead:

Kd	replicates with signal	CDR-L1	CDR-L2	CDR-L3	group
98 nM	5/6	KSSQSVLYESRNHNSVA	WGSTRES	QQYHRLPLS	Ctrl
1.0 nM	6/6	KLSQLWLYESRNKNSVA	NASTRED	QQYHRLPLS	GP_Gen
2.8 nM	6/6	HMSMLTLGGMRSRNSVA	QMTTREN	QQYDRLPLA	En_Gen
2.8 nM	6/6	KFGQGVHVESIMSNSIA	QTSTREE	QQYDRLPLS	En_HC
620 pM	6/6	FMSQSQLYESRNKNSVA	NGSTRES	QQYHRLPLS	GP_Gibbs
13 nM	6/6	QLYAVQDLTSKNSNNVA	EQTTREN	QQYHRLPLS	En_HC
11 nM	6/6	NLDKHDYEPRQMINSIA	DMQTLVA	QQYASLPLD	En_Gibbs
24 nM	4/6	KLDASMYVGTEAKRAIA	QDEMLVH	QQYDRLPLM	En_Gibbs
42 nM	6/6	SLHDMNMMGLANNANVA	NASQLFS	QHYFRLPLQ	En_Gibbs
850 pM	6/6	TISDLMHMESRNVNSVA	DLVKRES	QQYHRLPLS	En_HC
2.2 nM	6/6	RLTEHYFMRADANHAVA	DASTRND	QQYHRLPLW	En_Gibbs
89 nM	3/6	KISMLMENSHVNRNSVA	ELVTRMR	QQYNRLPLS	En_Gen
26 nM	6/6	KVEMGVDDLERNDNSVA	WASTRES	QQYHRLPLS	GP_Gibbs
75 nM	6/6	TISMHTSLFSQTINNVA	EVSTRIQ	QQYDRLPLI	En_Gen
2.0 nM	6/6	KSSQSVKFESRNKNSVA	DASTRET	QQYHRLPLS	GP_HC
4.6 nM	6/6	KLSNVTGHMSMAKNNVA	EMVTREN	QQYNRLPLS	En_Gen
2.4 nM	6/6	KLSQVQEYEMHNKDNVA	DLTTRGS	QDYHRLPLS	En_HC
23 nM	6/6	HMDLAVAGLTRDMNSIA	NTSARCA	QQYYRFPLI	En_Gibbs
2.2 nM	6/6	KSSQSVLFQSRNKNSVA	DASTRES	QQYHRLPLS	GP_HC
30 nM	1/6	IVSQLMLWGWHAKNSIA	EAQVRLN	QQYDRLPLM	En_Gen
1.5 nM	6/6	TISQMTSSFTQNINNVA	EVSTRCK	QQYDRLPLV	En_Gen
5.1 nM	6/6	VMQMDRLGQGQYQNNIA	NQDLRTA	QQYYMLPLV	En_Gibbs
1.0 nM	6/6	KQSQSVEGESSNKNSVA	NASTREQ	QQYHRLPLS	GP_Gibbs
no signal	0/6	KSSQSILYESMNKNSVA	WASTRES	QQYHRQPLP	Ctrl
1.2 nM	6/6	KLSQSHLYESRNKNSVA	GASTRES	QQYHRLPLS	GP_Gen

Nonspecific signal, from three strains lacking the peptide, appeared in 4% of pairings of all light chain designs, centred on 430 nM (5% of these signals below 38 nM); values are not corrected for it. Of ten entries with the parent sequence, four were seen in most replicates (averages 2.2 nM to 240 nM), three in one and three in none, so single entries are noisy. In the paper, a design with two or fewer of six values counts as a poor binder.

From the AlphaSeq antibody data of Li et al. 2023 (doi:10.1038/s41467-023-39022-2), copy in the FLAb collection.